## Binding of CDR-mutated scFvs to a peptide of the spike HR2 region

Values reported by Li et al. 2023, doi:10.1038/s41467-023-39022-2 (FLAb copy).

Target: peptide PDVDLGDISGINAS, taken from heptad repeat 2 (HR2) of SARS-CoV-2 spike.

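Phage display of a naive human antibody library on the peptide gave the parent. Designed CDR sequences, proposed from the first random library and measured here. Their group label is 14H_GPLM_Gen (GPLM: also part of the Gaussian process libraries; Gen: genetic algorithm; a sequence that several methods proposed may carry one label only). Affinity was read by AlphaSeq, a pooled yeast mating assay with surface-displayed partners. The frequency of each diploid, read from paired DNA barcodes, reflects how well the two displayed proteins bind. Read counts were normalised to the haploid input and turned into Kd by a linear fit to BCL2-family pairs of known affinity, for each replicate. The assay was run in six technical replicates.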

Parent scFv Ab-14: VH joined to VL by a (GGGGS)3 linker. Changes lie in the heavy chain CDRs alone.
VH: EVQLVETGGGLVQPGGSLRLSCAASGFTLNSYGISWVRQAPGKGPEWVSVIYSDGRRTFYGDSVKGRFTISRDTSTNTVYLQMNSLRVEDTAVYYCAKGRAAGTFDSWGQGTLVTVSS
VL: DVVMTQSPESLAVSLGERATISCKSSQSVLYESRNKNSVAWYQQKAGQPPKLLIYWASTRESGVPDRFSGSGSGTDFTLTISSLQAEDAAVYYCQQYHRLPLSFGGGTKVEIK

Each variant is given by its three heavy chain CDRs, as the data file delimits them; those of the parent are GFTLNSYGIS, VIYSDGRRTFYGDSVK, GRAAGTFDS.
Values are log10 of the apparent Kd in nM; lower means stronger binding.
"nd" means that the variant was in the library but no mating with the target was seen in that replicate; the authors take this as a sign of poor binding, and no number exists.
Background: pairings of all heavy chain designs with three empty control strains gave a value in 1% of cases (median 2.08, 5th percentile 0.84). Values in that range, when seen in few replicates, are hard to tell from nonspecific mating. Also given: how often the same scFv was detected with the empty control strains, with their mean in brackets.
In the paper, a design with two or fewer of six values counts as a poor binder.
The parent sequence was in this pool as ten entries: three were never detected, three once, and four in most replicates, with averages from 0.34 to 2.37.
A sequence measured in both rounds can read differently, since the two assays cover different ranges.

| # | CDR-H1 | CDR-H2 | CDR-H3 | log10 Kd (nM) by replicate | empty controls |
|---|---|---|---|---|---|
| 1 | GFKLNEYGIS | VIYSDGRRTFYGDSVK | GKAAGTFDS | 0.39 0.61 0.97 0.29 0.15 0.52 | 0/18 |
| 2 | GFNLNSYGIS | VIYADGRRTFYGDSVK | GNAAGTFDS | -0.03 0.86 -0.39 -0.24 0.82 0.42 | 0/18 |
| 3 | GFSLNMYGIS | VIYSDGRRTFYKDSVK | GRTAGTFDS | nd nd nd nd nd nd | 0/18 |
| 4 | GFDLNSYGIS | VIYSDGRRTFYADSVK | GDAAGTFDS | 0.99 1.30 1.42 1.58 1.33 1.21 | 2/18 (2.60) |
| 5 | GFSLNEYGIS | VIYSDGRRTFYGDSVK | GEAAGTFDS | 0.14 0.68 0.21 -0.04 0.36 0.49 | 1/18 (1.88) |
| 6 | GFELNSYGIS | VIYSDGRRTFYTDSVK | GRMAGTFDS | 0.76 1.74 0.37 0.33 0.41 0.72 | 0/18 |
| 7 | GFVLNEYGIS | VIYSDGRRTFYGDSVK | GQAAGTFDL | 0.82 0.79 1.41 0.65 1.09 1.46 | 0/18 |
| 8 | MFSLNSYGIS | VIYSDGRRTFYADSVK | GEAAGTFDS | 1.31 2.17 1.18 1.14 1.32 1.31 | 1/18 (2.04) |
| 9 | GFSLNEYGIS | VIYSDGRRTFYHDSVK | GRAAGTFDS | 0.66 0.06 0.94 0.03 0.25 0.94 | 0/18 |
| 10 | GFQLNSYGIS | VIYSDGRRTFYGDSVK | GEAAGTFDS | nd 1.69 1.57 1.35 2.40 1.60 | 0/18 |
| 11 | GFSLNSYGIS | VIYADGRRTFYGDSVK | GRAAGTFDN | 0.94 -0.20 0.22 -0.20 -0.22 -0.01 | 1/18 (2.12) |
| 12 | GFSLNEYGIS | VIYSDGRRTFYGDSVK | GRTAGTFDK | -0.33 0.20 0.50 1.06 0.79 nd | 0/18 |
| 13 | GFELNEYGIS | VIYSDGRRTFYGDSVK | GRTAGTFDS | -0.30 -0.45 -0.22 -0.51 -0.35 -0.33 | 0/18 |
| 14 | GFTLNSYGIS | VIYSDGRRTFYGDSVK | GRTAGTFDV | nd nd nd nd nd nd | 0/18 |
| 15 | GFDLNSYGIS | VIYSDGRRTFYADSVK | GRNAGTFDS | -0.05 -0.14 0.35 0.19 0.07 0.02 | 1/18 (1.51) |
| 16 | GFSLNEYGIS | VIYSDGRRTFYGDSVK | GSAAGTFDK | -0.11 0.03 -0.11 0.44 0.11 -0.03 | 0/18 |
| 17 | GFQLNNYGIS | VIYSDGRRTFYGDSVK | GRTAGTFDS | 1.04 0.28 0.91 0.51 0.67 0.95 | 0/18 |
| 18 | GFQLNSYGIS | VIYSDGRRTFYADSVK | GHAAGTFDS | 0.98 1.42 1.05 0.45 0.54 0.52 | 1/18 (2.64) |
| 19 | GFSLNSYGIS | VIYSDGRRTFYGDSVK | GRAAGTFDV | 1.37 0.67 0.30 0.27 -0.02 1.26 | 1/18 (1.89) |
| 20 | GFSLNSYGIS | VIYSDGRRTFYQDSVK | GRTAGTFDY | 2.37 1.99 1.12 1.23 0.58 1.24 | 1/18 (3.05) |
| 21 | GFSLNSYGIS | VIYSDGRRTFYSDSVK | GQAAGTFDT | 0.04 0.17 -0.30 -0.44 -0.46 -0.20 | 1/18 (0.96) |
| 22 | GFSLNSYGIS | VIYSDGRRTFYGDSVK | GRVAGTFDT | 0.37 0.14 0.51 -0.24 0.90 0.15 | 0/18 |
| 23 | GFFLNEYGIS | VIYSDGRRTFYGDSVK | GQAAGTFDL | nd nd nd nd nd 1.07 | 0/18 |
| 24 | GFSLNSYGIS | VIYSDGKRTFYGDSVK | GQAAGTFDL | 0.70 0.21 0.59 0.52 0.25 0.64 | 0/18 |
| 25 | DFSLNSYGIS | VIYSDGRRTFYGDSVK | GRTAGTFDS | 1.32 1.21 1.71 1.51 1.19 1.33 | 0/18 |
| 26 | GFTLNEYGIS | VIYSDGRRTFYSDSVK | GKAAGTFDS | 2.68 0.21 -0.11 -0.03 1.53 0.61 | 0/18 |
| 27 | GFSLNSYGIS | VIYSDGRRTFYGDSVK | GQAAGTFDQ | 1.32 0.67 1.17 0.49 0.78 1.37 | 1/18 (1.98) |
| 28 | GFTLNSYGIS | VIYSDGQRTFYSDSVK | GEAAGTFDS | 0.68 0.79 0.64 0.44 0.56 0.70 | 0/18 |
| 29 | GFSLNSYGIS | VIYSDGRRTFYGDSVK | GRTAGTFDK | 0.74 0.59 0.56 1.51 1.09 0.91 | 1/18 (2.85) |
| 30 | GFSLNEYGIS | VIYSDGRRTFYSDSVK | GEAAGTFDS | nd 0.01 2.38 0.67 0.92 1.53 | 0/18 |
| 31 | GFSLNSYGIS | VIYSDGRRTFYADPVK | GRTAGTFDS | 0.41 0.41 0.67 0.14 0.82 0.57 | 0/18 |
| 32 | KFSLNSYGIS | VIYSDGRRTFYADSVK | GQTAGTFDS | nd nd nd nd nd nd | 1/18 (0.28) |
| 33 | GFSLNSYGIS | VIYSDGRRTFYGDSVK | GQVAGTFDS | 0.10 0.26 -0.10 0.16 -0.28 0.53 | 0/18 |
| 34 | GFDLNTYGIS | VIYSDGRRTFYADSVK | GQAAGTFDS | -0.13 -0.26 -0.42 -0.24 -0.03 0.02 | 0/18 |
| 35 | GFSLNSYGIS | VIYSDGRRTVYGDSVK | GQAAGTFDS | 0.82 0.45 0.59 0.23 0.49 0.37 | 0/18 |
| 36 | GFSLNSYGIS | VIYSDGRRTFYDDSVK | GRLAGTFDS | 1.02 0.67 0.55 0.52 0.40 0.98 | 0/18 |
| 37 | GFSLNSYGIS | VIYADGRRTFYGDSVK | GQAAGTFDL | 0.07 0.37 0.07 -0.22 0.18 0.00 | 1/18 (2.26) |
| 38 | GFQLNEYGIS | VIYSDGRRTFYADSVK | GRAAGTFDS | 0.45 0.22 0.20 -0.01 0.12 0.33 | 0/18 |
| 39 | GFTLNEYGIS | VIYSDGRRTFYGDSVK | GWAAGTFDK | nd 2.07 nd 1.53 1.16 nd | 0/18 |
| 40 | GFELNTYGIS | VIYSDGRRTFYADSVK | GQAAGTFDS | 0.83 -0.07 0.39 0.28 0.84 0.67 | 0/18 |
| 41 | GFSLNSYGIS | VIYSDGRRTFYGDSVK | GRWAGTFDS | 0.98 0.52 1.26 1.29 1.33 1.91 | 0/18 |
| 42 | GFELNSYGIS | VIYADGRRTFYGDSVK | GKAAGTFDK | 0.45 -0.14 -0.42 0.05 -0.08 0.01 | 0/18 |
| 43 | GFSLNSYGIS | VIYADGRRTFYGDSVK | GRQAGTFDS | 0.15 0.17 0.58 -0.11 0.00 0.26 | 1/18 (1.41) |
| 44 | GFSLNSYGIS | VIYSDGRRTFYGDHVK | GQAAGTFDS | 1.31 1.34 2.43 3.16 1.28 3.16 | 0/18 |
| 45 | GFSLNSYGIS | VIYSDGRRTFYTDSVK | GRAAGTFDS | nd 0.08 nd 1.40 nd 0.91 | 0/18 |
| 46 | GFSLNSYGIS | VIYSDGRRTFYGDSVK | GSAAGTFDL | nd 1.08 0.05 0.47 0.41 0.90 | 0/18 |

Again, the first 3 entries without any signal:

| CDR-H1 | CDR-H2 | CDR-H3 | log10 Kd (nM) by replicate | empty controls |
|---|---|---|---|---|
| GFSLNMYGIS | VIYSDGRRTFYKDSVK | GRTAGTFDS | nd nd nd nd nd nd | 0/18 |
| GFTLNSYGIS | VIYSDGRRTFYGDSVK | GRTAGTFDV | nd nd nd nd nd nd | 0/18 |
| KFSLNSYGIS | VIYSDGRRTFYADSVK | GQTAGTFDS | nd nd nd nd nd nd | 1/18 (0.28) |